Measurements: PubChem BioAssay AID720647 (Broad Institute, 2013)
The entries are a selection whose mix differs from that of the whole data set. The source made the active and inactive calls.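 The calls were made as follows: active = drop in luminescence signal, shown as inhibition above about 50% in the replicate tests (limit read from the data, passing the limit was not always enough); inconclusive = probably only some replicates passing the limit; inactive = the rest.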

test system: Drosophila bursicon receptor LGR2 (rickets); assay: LGR2 cAMP reporter signal reduction – cell-based, HEK293, CRE-luciferase reporter, bursicon stimulation, primary screen (AID 720647); conditions: bursicon-stimulated, 4 h, at 9.99 µM, active compounds read high;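 also: agonist challenge used bursicon conditioned medium at about half maximal strength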

SMILES | inhibition
Cc1cc(C)cc(N(C(=O)c2ccccc2)C2CCN(C(=O)OC(C)(C)C)CC2)c1 | inactive: 13.2%
O=C(NCC1(N2CCCCC2)CCCCC1)c1ccc(Cl)nc1 | inactive: -4.08%
O=c1[nH]c2ccccc2n1C1CCN(C(c2ccccc2OC(F)(F)F)c2nnnn2C2CCCCC2)CC1 (configuration not stated) | inactive: 28.1%
COc1ccc(Cl)cc1C(=O)NCC1(N2CCOCC2)CCCCC1 | inactive: -9.26%
N#CC1(Nc2ccccc2)CCN(Cc2ccccc2)CC1 | inactive: 7.56%
O=C(NCC1(N2CCCCC2)CCCCC1)c1ccc(Cl)s1 | inactive: -2.43%
O=c1[nH]c2ccccc2n1C1CCN(C(c2cc3ccccc3o2)c2nnnn2C2CCCCC2)CC1 (configuration not stated) | inactive: 16.9%
O=C(OC1CN2CCC1CC2)C1c2ccccc2Oc2ccccc21 (configuration not stated) | inactive: -5.59%
CCCCn1nnnc1C(c1ccc(OC)cc1)N1CCC(n2c(=O)[nH]c3ccccc32)CC1 (configuration not stated) | inactive: 9.89%
CCOC(=O)N1CCC(Nc2ccc(OC)cc2)CC1 | inactive: 24.2%
CC(C)(C)OC(=O)N1CCC(N(C(=O)c2ccccc2)c2ccc(F)cc2)CC1 | inactive: 6.98%
COc1ccc(C(=O)NCC2(N3CCCCC3)CCCCC2)c(OC)c1OC | inactive: 10.9%
CCC(c1nnnn1C1CCCC1)N1CCC(n2c(=O)[nH]c3ccccc32)CC1 (configuration not stated) | inactive: 1.74%
COc1ccc(C(=O)NCC2(N3CCCCC3)CCCCC2)cc1 | inactive: -7.39%
O=C(NCC1(N2CCCCC2)CCCCC1)c1cccs1 | inactive: -12.4%
CCCCn1nnnc1C(CC)N1CCC(n2c(=O)[nH]c3ccccc32)CC1 (configuration not stated) | inactive: -4.79%
CCCCn1nnnc1C(c1cccs1)N1CCC(n2c(=O)[nH]c3ccccc32)CC1 (configuration not stated) | inactive: 8.27%
O=C(NCC1(N2CCCCC2)CCCCC1)c1ccc(=O)[nH]c1 | inactive: -7.34%
Cc1cccc(NC2(C#N)CCN(Cc3ccccc3)CC2)c1 | inactive: -4.02%
CSc1ccccc1C(=O)NCC1(N2CCCCC2)CCCCC1 | inactive: -17.7%
O=c1[nH]c2ccccc2n1C1CCN(C(c2ccccc2)c2nnnn2C2CCCCC2)CC1 (configuration not stated) | inactive: 3.69%
CCOC(=O)N1CCC(Nc2cccc(C)c2)CC1 | inactive: 21.9%
COc1cc(C(=O)NCC2(N(C)C)CCCCC2)ccc1OC(F)F | inactive: -1.45%
O=c1[nH]c2ccccc2n1C1CCN(C(c2cccc3ccccc23)c2nnnn2C2CCCC2)CC1 (configuration not stated) | inactive: 29.6%
CC(C)(C)n1nnnc1C(c1ccccc1)N1CCC(n2c(=O)[nH]c3ccccc32)CC1 (configuration not stated) | inactive: 9.11%

SMILES | inhibition
CCOC(=O)N1CCC(Nc2ccc(F)cc2)CC1 | inactive: 17.1%
CCCCOc1ccc(C(=O)NCC2(N3CCOCC3)CCCCC2)cc1 | inactive: -3.21%
O=P1(N(CCCl)CCCl)SCCCS1 | inactive: -2.07%
CCCCn1nnnc1C(c1cc2ccccc2o1)N1CCC(n2c(=O)[nH]c3ccccc32)CC1 (configuration not stated) | inactive: 13.3%
O=C(NCC1(N2CCCCC2)CCCCC1)c1ccc(F)cc1 | inactive: -1.68%
O=C(NCC1(N2CCCCC2)CCCCC1)c1cccc(C(F)(F)F)c1 | inactive: 5.28%
O=C(NCC1(N2CCOCC2)CCCCC1)c1cc(=O)[nH]c2ccccc12 | inactive: 12.5%
COc1cc(C(=O)NCC2(N3CCCCC3)CCCCC2)ccc1OC(F)F | inactive: -26.3%
CC(C)c1ccc(C(=O)NCC2(N3CCOCC3)CCCCC2)cc1 | inactive: -25.8%
COc1ccc(NC2CCN(C(=O)OC(C)(C)C)CC2)cc1 | inactive: 7.81%
CN1CCN(CCOC(=O)C(O)(c2ccccc2)c2ccccc2)CC1 | inactive: 6.87%
CCCCn1nnnc1C(c1cccc2ccccc12)N1CCC(n2c(=O)[nH]c3ccccc32)CC1 (configuration not stated) | inactive: 25.4%
O=C(NCC1(N2CCCCC2)CCCCC1)c1ccc(OC(F)F)cc1 | inactive: 7.74%
CC(C)(C)n1nnnc1C(c1ccccc1OC(F)(F)F)N1CCC(n2c(=O)[nH]c3ccccc32)CC1 (configuration not stated) | inactive: 16.5%
O=c1[nH]c2ccccc2n1C1CCN(C(c2ccccc2OC(F)(F)F)c2nnnn2C2CCCC2)CC1 (configuration not stated) | inactive: 22.2%
CCN1CCC(Nc2ccc(Cl)cc2)CC1 | inactive: -1.38%
CSc1ccc(C(=O)NCC2(N3CCOCC3)CCCCC2)cc1 | inactive: -33.6%
O=C(NCC1(N2CCCCC2)CCCCC1)c1cccc([N+](=O)[O-])c1 | inactive: 8.36%
CN1CCC(Nc2cccc(F)c2)CC1 | inactive: -1.43%
O=C(NCC1(N2CCCCC2)CCCCC1)c1cncc(Br)c1 | inactive: 13.8%
COc1ccc(C(c2nnnn2C2CCCC2)N2CCC(n3c(=O)[nH]c4ccccc43)CC2)cc1 (configuration not stated) | inactive: -1.95%
CCCOc1ccc(C(=O)NCC2(N(C)C)CCCCC2)cc1OC | inactive: -3.63%
Cc1ccc(C(=O)NCC2(N(C)C)CCCCC2)o1 | inactive: -8.47%
CC(C)c1ccc(NC2CCN(C(=O)OC(C)(C)C)CC2)cc1 | inactive: -55.7%
CN(C)c1cccc(C(=O)NCC2(N3CCCCC3)CCCCC2)c1 | inactive: -18.8%

SMILES | inhibition
COc1ccc(CN(CCCl)CCCl)cc1Cl | inactive: 4.26%
O=C(NCC1(N2CCOCC2)CCCCC1)c1cc(F)c(F)cc1Cl | inactive: 7.49%
CCC(c1nnnn1C(C)(C)C)N1CCC(n2c(=O)[nH]c3ccccc32)CC1 (configuration not stated) | inactive: -17.1%
COc1cc(OC)c(C(=O)NCC2(N(C)C)CCCCC2)cc1OC | inactive: -0.124%
CCCCn1nnnc1C(c1ccnc2ccccc12)N1CCC(n2c(=O)[nH]c3ccccc32)CC1 (configuration not stated) | inactive: 5.29%
CCOC(=O)N1CCC(Nc2ccc(C)cc2)CC1 | inactive: -3.95%
COc1cccc(C(c2nnnn2C(C)(C)C)N2CCC(n3c(=O)[nH]c4ccccc43)CC2)c1OC (configuration not stated) | inactive: 9.73%
O=c1[nH]c2ccccc2n1C1CCN(C(c2cccs2)c2nnnn2C2CCCC2)CC1 (configuration not stated) | inactive: 10.8%
O=C(OC1CN2CCC1CC2)C1c2ccccc2C=Cc2ccccc21 (configuration not stated) | inactive: -11.8%
CCCCn1nnnc1C(c1cccc(OC)c1OC)N1CCC(n2c(=O)[nH]c3ccccc32)CC1 (configuration not stated) | inactive: 23.8%
COc1cc(C(=O)NCC2(N3CCOCC3)CCCCC2)cc(OC)c1C | inactive: 6.6%
CCCCn1nnnc1C(c1ccccc1)N1CCC(n2c(=O)[nH]c3ccccc32)CC1 (configuration not stated) | inactive: 12.6%
O=C(NCC1(N2CCOCC2)CCCCC1)c1cc(Br)ccc1Cl | inactive: 12.8%
O=c1[nH]c2ccccc2n1C1CCN(C(c2cccs2)c2nnnn2C2CCCCC2)CC1 (configuration not stated) | inactive: 16.5%
O=c1[nH]c2ccccc2n1C1CCN(C(c2ccnc3ccccc23)c2nnnn2C2CCCC2)CC1 (configuration not stated) | inactive: -22.2%
COc1ccc(C(=O)NCC2(N3CCOCC3)CCCCC2)cc1OC | inactive: -12.5%
CN(C)C1(CNC(=O)c2cccc(C#N)c2)CCCCC1 | inactive: -1.48%
Cc1cc(N(CCCl)CCCl)ccc1C=O | inactive: 5.05%
CCCN1CCC(Nc2cc(OC)cc(OC)c2)CC1 | inactive: 3.93%
O=c1[nH]c2ccccc2n1C1CCN(C(c2ccccc2)c2nnnn2C2CCCC2)CC1 (configuration not stated) | inactive: 12.1%
C/C(N)=N\P(=O)(Oc1ccccc1)Oc1ccccc1 | inactive: 14.9%
CC(C)(C)n1nnnc1C(c1cccc2ccccc12)N1CCC(n2c(=O)[nH]c3ccccc32)CC1 (configuration not stated) | inactive: 12.1%
CC(C)(C)OC(=O)N1CCC(N(C(=O)c2ccccc2)c2ccc(Cl)cc2)CC1 | inactive: 17.9%
CCN1CCC(Nc2cccc(F)c2)CC1 | inactive: 1.3%
COc1ccc(C(c2nnnn2C2CCCCC2)N2CCC(n3c(=O)[nH]c4ccccc43)CC2)cc1 (configuration not stated) | inactive: 10.1%

SMILES | inhibition
CC(C)(C)n1nnnc1C(c1ccnc2ccccc12)N1CCC(n2c(=O)[nH]c3ccccc32)CC1 (configuration not stated) | inactive: 11.9%
Cc1ccccc1NC1(C#N)CCN(Cc2ccccc2)CC1 | inactive: 5.25%
CN(C)c1ccc(C(=O)NCC2(N3CCCCC3)CCCCC2)cc1 | inactive: -0.098%
Cn1c(=O)[nH]cc(N(CCCl)CCCl)c1=O | inactive: 6.6%
O=C(NCC1(N2CCCCC2)CCCCC1)c1ccco1 | inactive: -12.1%
CCC(c1nnnn1C1CCCCC1)N1CCC(n2c(=O)[nH]c3ccccc32)CC1 (configuration not stated) | inactive: 5.34%
COc1cccc(C(c2nnnn2C2CCCCC2)N2CCC(n3c(=O)[nH]c4ccccc43)CC2)c1OC (configuration not stated) | inactive: 28.4%
CC(=O)N(c1ccccc1)C1CCNCC1 | inactive: 8.2%
COc1cc(OC)cc(C(=O)NCC2(N3CCCCC3)CCCCC2)c1 | inactive: 13.3%
O=c1[nH]c2ccccc2n1C1CCN(C(c2ccnc3ccccc23)c2nnnn2C2CCCCC2)CC1 (configuration not stated) | inactive: -13.1%
Fc1ccccc1NC1CCN(Cc2ccccc2)CC1 | inactive: -4.72%
Cc1ccc(C(=O)NCC2(N3CCCCC3)CCCCC2)o1 | inactive: 3.8%
COc1cccc(C(=O)N(c2cc(C)cc(C)c2)C2CCN(C(=O)OC(C)(C)C)CC2)c1 | inactive: 5.82%
COc1cccc(C(c2nnnn2C2CCCC2)N2CCC(n3c(=O)[nH]c4ccccc43)CC2)c1OC (configuration not stated) | inactive: 2.21%
COc1cc(OC)cc(C(=O)NCC2(N3CCOCC3)CCCCC2)c1 | inactive: 0.562%
CN1CCC(Nc2ccc(Cl)cc2)CC1 | inactive: 7.04%
CN1CCC(Nc2ccc(F)c(Cl)c2)CC1 | inactive: 3.09%
NN(c1ccccc1)C1CCN(CCc2ccccc2)CC1 | inactive: 13.8%
O=C(O)C1(Nc2ccccc2)CCN(Cc2ccccc2)CC1 | inactive: 2.11%
CC(C)(C)OC(=O)N1CCC(Nc2ccccc2)CC1 | inactive: 18.7%
O=c1[nH]c2ccccc2n1C1CCN(C(c2cc3ccccc3o2)c2nnnn2C2CCCC2)CC1 (configuration not stated) | inactive: -3.12%
CCCOc1ccc(C(=O)NCC2(N(C)C)CCCCC2)cc1 | inactive: -1.36%
